Literature values, collected in US6812025B2, “Two hybrid assay that detects HIV-1 reverse transcriptase dimerization” (priority 2000, dated 2004).

Target: T1, RT heterodimer (Human immunodeficiency virus type 1 group M subtype B, UniProt P12497)
T1 construct: The enzyme is a heterodimer of p66 and p51 subunits
Conditions: cited from earlier work

Question: With `O=C1Nc2ccc(Cl)cc2[C@@](C#CC2CC2)(C(F)(F)F)O1` [efavirenz] as the compound, how does the “binding to the RT heterodimer” value read?
Answer: The value was “bind very tightly”.
